Measured values reported in PubChem BioAssay (NCATS).
Where “and” joins values, the source holds several entries; their conditions need not be identical. Identical values can stand only once. This is a selection; strong and weak results do not stand in their true shares. Records with an inconclusive call do not appear. Calls of active or inactive are those of the source. Calls come from the whole dose curve; as a rule, active = well fitted activation curve with a large enough effect in the signal ratio (not every such curve was filed as active); inconclusive = small, poorly fitted or top-dose-only effect, or a change in a side signal; inactive = flat fitted curve, though single readings scatter; the % refers to the signal ratio.

Experiment: qHTS assay for small molecule activators of the p53 signaling pathway (AID 651743); note: series mostly up to about 92 µM; % of control where 0% means no effect
Conditions: HCT-116 p53RE-bla, beta-lactamase FRET ratio, 16 h; hits give high values
Text: National Center for Advancing Translational Sciences [NCATS] NIH Chemical Genomics Center [NCGC] U.S. Environmental Protection Agency [EPA] National Institutes of Environmental Health Sciences [NIEHS] National Toxicology Program [NTP] Assay Overview: p53, a tumor suppressor protein, is activated following cellular insult, including DNA damage and other cellular stresses. The activation of p53 regulates cell fate by inducing DNA repair, cell cycle arrest, apoptosis, or cellular senescence. The activation of p53, therefore, is a good indicator of DNA damage and other cellular stresses. The CellSensor p53RE-bla HCT-116 cell line (Invitrogen) contains a stably integrated beta-lactamase reporter gene under control of the p53 response elements. The activation of the report gene under culture conditions can be detected by fluorescence intensity. This cell line can be used to screen chemicals in a 1536-well plate format and to identify agonists that activate p53 signaling pathway.
Assay Protocol Summary: The p53RE-bla cells were dispensed at 4,000 cells/5 ul/well in 1536-well black wall/clear bottom plates using a Multidrop dispenser. After the assay plates were incubated at a 37 C/5% CO2 incubator for 5 hours, 23 nL of compounds dissolved in DMSO, positive controls or DMSO only was transferred to the assay plate by a pin tool. The plates were incubated at 37 C for 16 hours. After 1 uL of LiveBLAzer B/G FRET substrate was added using a Flying Reagent Dispenser, the plates were incubated at room temperature for 2 hours, and fluorescence intensity was measured by an Envision plate reader.

Structure (SMILES)	activation
Cc1ccc([N+](=O)[O-])cc1[N+](=O)[O-]	inactive: -2.97% and inactive: -3.75%
O=[N+]([O-])[O-].[NH4+]	inactive: -0.087%
[NH4+].[O-][Cl+3]([O-])([O-])[O-]	inactive: 0.306%
Cc1c([N+](=O)[O-])cccc1[N+](=O)[O-]	inactive: -3.32% and inactive: -1.81%
O=[N+]([O-])c1cccc([N+](=O)[O-])c1	inactive: -0.128% and inactive: -3.12%
CCOP(=O)(CC)OCC	inactive: -2.09%
Cc1cccc([N+](=O)[O-])c1[N+](=O)[O-]	inactive: -1.32% and inactive: -5.45%
CCC(C)(OO)OOC(C)(CC)OO (stereo not given)	inactive: -0.678% and inactive: 1.25%
Cc1ccc([N+](=O)[O-])c([N+](=O)[O-])c1	inactive: -0.263% and inactive: -2.49%
CCOP(=S)(CC)Oc1cc(Cl)c(Cl)cc1Cl (stereo not given)	inactive: 0.676%
